# In PMC7601681, “Human Serum Albumin Binds Native Insulin and Aggregable Insulin Fragments and Inhibits Their Aggregation” (Biomolecules, 2020):
# Experiment: Solubility and aggregation of pyrene-labeled peptides seen by absorption and fluorescence
# Experimental: The solutions of HSA (concentration = 3 10^−5 M) were prepared by dissolving the protein in 0.01 M of phosphate buffer saline (PBS, [NaCl] = 150 mM), pH = 7.2. […] The prepared samples were used within 24 h. […] The concentration of HSA was verified spectrophotometrically using the molar absorption coefficient 35500 M^−1cm^−1 at 280 nm for HSA [61]. In order to ensure complete protein hydration, the solutions were stored at room temperature for at least 1 h before measurements. The samples for fluorescence measurements were saturated with argon or deaerated with a vacuum pump.
# The absorbances of Py-LYQLENY and Py-VEALYL were determined in 10 mM standard PBS solution, ethanol, methanol, and 10 mM TX-100. […]
# This allowed the molar coefficient absorbance to be determined, using the gravimetric […]
# Py-LYQLENY stock solution in dioxane to the buffer solution enabled the molar absorbance coefficient […]
# In order to investigate the possible aggregation of the fluorescence labeled insulin hot spots in the buffer solution, spectrophotometric titration was performed for Py -LYQLENY (2) in a range of concentration from 2.9 to 56.4 µM. Titration was carried out until there were no significant changes in fluorescence intensity.
# The fluorescence spectra were recorded for each concentration (Figure 5a). […]
# Fig. S8. Fluorescence spectra of Py-LYQLENY in PBS solutions recorded for the given probe
substance,measurement,setting,value
Py-Ins: derivative of human insulin labeled with 4-(1-pyrene)butyric acid,solubility in aqua media in the presence of HSA,,increased significantly
same,aggregation in buffer solution,"0.01 M PBS, 150 mM NaCl, pH 7.2",partial aggregation
